Measurements as given in ChEMBL document CHEMBL1132454 (J Med Chem, 1999).

By UniProt entry, the sequences of proteins in these tests, tags left out.
UniProt Q9WTR4, whole entry: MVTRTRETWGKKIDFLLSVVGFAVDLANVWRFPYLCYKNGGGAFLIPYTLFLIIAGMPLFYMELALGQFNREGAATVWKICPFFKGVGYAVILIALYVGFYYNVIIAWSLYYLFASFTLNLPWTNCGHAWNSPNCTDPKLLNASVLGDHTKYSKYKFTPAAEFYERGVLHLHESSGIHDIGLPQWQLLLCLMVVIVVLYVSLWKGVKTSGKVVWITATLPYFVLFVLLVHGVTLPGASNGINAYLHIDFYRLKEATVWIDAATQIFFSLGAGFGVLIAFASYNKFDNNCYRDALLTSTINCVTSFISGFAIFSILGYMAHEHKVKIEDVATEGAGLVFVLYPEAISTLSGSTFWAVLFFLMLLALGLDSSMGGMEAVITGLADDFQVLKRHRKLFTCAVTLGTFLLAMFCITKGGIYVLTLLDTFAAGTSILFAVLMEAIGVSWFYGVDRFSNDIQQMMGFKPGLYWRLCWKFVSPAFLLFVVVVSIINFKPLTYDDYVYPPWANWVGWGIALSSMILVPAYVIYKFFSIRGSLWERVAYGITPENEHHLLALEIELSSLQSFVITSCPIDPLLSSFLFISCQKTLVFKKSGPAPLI

Molecular target: Norepinephrine transporter (Rattus norvegicus, UniProt Q9WTR4)
Experiment: The compound was tested for binding affinity nisoxatine ligand
Summary of the method: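 Male Sprague-Dawley rat frontal cortex membranes in 50 mM Tris, 120 mM NaCl, 5 mM KCl, pH 7.4; 8 mg original wet tissue per tube. Incubation with 0.5 nM [3H]nisoxetine for 60 min at 0-4 °C. Nonspecific binding with 1 μM desipramine. Filtration and scintillation counting; Ki from at least three experiments in triplicate.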

COC(=O)[C@H]1[C@@H](OC(=O)c2ccccc2)C[C@@H]2CC[C@H]1N2C [COCAINE]
Ki: 3.3 µM
